# Ab-95 light chain CDR variants: yeast mating affinities

Target peptide (SARS-CoV-2 spike, HR2 region): PDVDLGDISGINAS

Ab-95 is the parent antibody, in scFv form: VH, then three GGGGS repeats, then VL. The heavy chain is unchanged in all variants.
VH: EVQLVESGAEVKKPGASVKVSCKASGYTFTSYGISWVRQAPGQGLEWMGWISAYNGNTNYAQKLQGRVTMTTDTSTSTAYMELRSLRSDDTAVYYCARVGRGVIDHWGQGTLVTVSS
VL: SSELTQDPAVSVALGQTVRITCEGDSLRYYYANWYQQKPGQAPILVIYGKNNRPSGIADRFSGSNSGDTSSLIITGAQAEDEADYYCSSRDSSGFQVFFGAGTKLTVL

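The library (AAYL52) carries one to three amino acid substitutions per variant, with no insertions or deletions. Affinity was read by AlphaSeq, a pooled yeast mating assay with surface-displayed partners. The frequency of each diploid, read from paired DNA barcodes, reflects how well the two displayed proteins bind. A regression on co-assayed BCL2-family reference pairs converts the normalised counts of each replicate to an apparent Kd. Mating was done three times.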

Positions count from residue 1 of the parent VL; Y29T puts T in place of Y.
Numbers give log10(Kd / nM), so 0 is 1 nM and 3 is 1 µM. Smaller is tighter.
Averages over replicates are reported, and they cover detected replicates only.
"nd" marks a missing value. The strain was present, yet no cells mated with the target were sequenced in that replicate, which points to weak or no binding.
Entries are sorted by rising average, undetected variants last.
Three control strains display no target. For library AAYL52, 28% of the pairings with them gave a signal, with a median of 3.91 and one signal in twenty below 2.90, so weak values seen in few replicates may be background.
In this assay the parent's reference entry averaged 2.31; its copy inside this library read 2.25.

| changes | log10 Kd (nM) by replicate | mean log10 Kd (nM) |
|---|---|---|
| Y29T/Y30G/K50H | 1.09 1.02 0.55 | 0.89 |
| Y31A/K50E/F98W | 1.26 1.15 0.70 | 1.04 |
| Y30Q/P54C/S92Y | 1.36 1.24 0.94 | 1.18 |
| D25G/Y30E/R90T | 1.98 1.47 1.80 | 1.75 |
| G49D/N52V | 2.01 2.34 1.75 | 2.03 |
| Y30C/N52L/F95K | 2.32 2.86 2.38 | 2.52 |
| D25M/Q96W | 2.78 2.49 2.30 | 2.52 |
| D25K/R28T/V97W | 2.68 2.79 2.62 | 2.70 |
| Y30R/A32S/S55M | 2.59 3.14 2.45 | 2.73 |
| Y29R/Y30M/S89M | 2.64 2.43 3.14 | 2.74 |
| R28M/Y30F/N51G | 2.78 2.93 2.62 | 2.78 |
| S55V/S92L/V97A | 3.08 2.53 2.83 | 2.82 |
| K50Q/D91Q | 2.86 2.69 3.00 | 2.85 |
| R53T/P54G/D91M | 2.70 3.03 2.91 | 2.88 |
| D25G/L27A/K50P | 2.89 2.48 3.38 | 2.91 |
| D25E/N52H/P54D | 3.16 2.88 2.74 | 2.93 |
| E23M/G49A | nd 3.13 2.83 | 2.98 |
| Y31F/S55E/G94I | 4.07 2.29 2.62 | 2.99 |
| S26C/N33A/S92E | 3.04 nd nd | 3.04 |
| L27N/N51L/S93W | 3.84 2.65 2.73 | 3.07 |
| N51S/D91V/F95T | 2.91 2.87 3.56 | 3.11 |
| Y29S/N51D/R53T | 3.06 3.81 2.68 | 3.18 |
| Y31W/K50R/S89L | 3.42 3.18 3.06 | 3.22 |
| G24E/N52Q/S92A | 3.18 2.94 3.65 | 3.26 |
| R28S/P54D/G94C | 2.77 3.94 nd | 3.35 |
| G24L/F95Q/Q96V | 3.42 3.48 3.45 | 3.45 |
| L27V/G49A/Q96H | 3.14 3.85 nd | 3.50 |
| Y31V/P54G/S55W | 4.03 3.06 3.44 | 3.51 |
| G24A/N33E/F95Y | 3.65 4.06 2.83 | 3.51 |
| S26H/P54T/V97D | 4.37 3.19 nd | 3.78 |
| E23F/R53T/D91C | 3.75 4.11 3.74 | 3.87 |
| E23M/N51W/N52G | nd 3.73 4.03 | 3.88 |
| N33Y/G49E/Q96D | 4.14 3.62 nd | 3.88 |
| A32L/S88W/R90A | nd nd 4.03 | 4.03 |
| R28N/R90T/F95H | nd nd 4.06 | 4.06 |
| D25K/K50L/P54L | 4.09 nd nd | 4.09 |
| L27P/G49R/S89A | nd nd 4.16 | 4.16 |
| N52Q/R53S/V97F | 5.26 3.83 3.58 | 4.22 |
| R53H/S88K/Q96T | nd 4.29 nd | 4.29 |
| N33R/K50Y/N51P | nd nd 4.37 | 4.37 |
| Y29M/S55K/G94L | nd 5.02 nd | 5.02 |
| D25C/L27F/D91S | 5.53 nd nd | 5.53 |
| S26V/Y30L/A32L | 5.33 5.99 nd | 5.66 |
| G24D/L27Q/G49P | nd nd nd | nd |
| L27T/P54I/S92W | nd nd nd | nd |

Repeated from above, the 5 best binders with a signal in all replicates:

{"changes": "Y29T/Y30G/K50H", "log10 Kd (nM) by replicate": "1.09 1.02 0.55", "mean log10 Kd (nM)": "0.89"}
{"changes": "Y31A/K50E/F98W", "log10 Kd (nM) by replicate": "1.26 1.15 0.70", "mean log10 Kd (nM)": "1.04"}
{"changes": "Y30Q/P54C/S92Y", "log10 Kd (nM) by replicate": "1.36 1.24 0.94", "mean log10 Kd (nM)": "1.18"}
{"changes": "D25G/Y30E/R90T", "log10 Kd (nM) by replicate": "1.98 1.47 1.80", "mean log10 Kd (nM)": "1.75"}
{"changes": "G49D/N52V", "log10 Kd (nM) by replicate": "2.01 2.34 1.75", "mean log10 Kd (nM)": "2.03"}

Data: MIT Lincoln Laboratory AlphaSeq set, Engelhart et al. 2022, doi:10.1038/s41597-022-01779-4, as distributed in FLAb.